# Columns and labels:
# Chains of the proteins cited; added tags and fusions are not shown. Lines headed by an entry give the natural chain unless they say otherwise; changes in a name come on top.
# UniProt O00329: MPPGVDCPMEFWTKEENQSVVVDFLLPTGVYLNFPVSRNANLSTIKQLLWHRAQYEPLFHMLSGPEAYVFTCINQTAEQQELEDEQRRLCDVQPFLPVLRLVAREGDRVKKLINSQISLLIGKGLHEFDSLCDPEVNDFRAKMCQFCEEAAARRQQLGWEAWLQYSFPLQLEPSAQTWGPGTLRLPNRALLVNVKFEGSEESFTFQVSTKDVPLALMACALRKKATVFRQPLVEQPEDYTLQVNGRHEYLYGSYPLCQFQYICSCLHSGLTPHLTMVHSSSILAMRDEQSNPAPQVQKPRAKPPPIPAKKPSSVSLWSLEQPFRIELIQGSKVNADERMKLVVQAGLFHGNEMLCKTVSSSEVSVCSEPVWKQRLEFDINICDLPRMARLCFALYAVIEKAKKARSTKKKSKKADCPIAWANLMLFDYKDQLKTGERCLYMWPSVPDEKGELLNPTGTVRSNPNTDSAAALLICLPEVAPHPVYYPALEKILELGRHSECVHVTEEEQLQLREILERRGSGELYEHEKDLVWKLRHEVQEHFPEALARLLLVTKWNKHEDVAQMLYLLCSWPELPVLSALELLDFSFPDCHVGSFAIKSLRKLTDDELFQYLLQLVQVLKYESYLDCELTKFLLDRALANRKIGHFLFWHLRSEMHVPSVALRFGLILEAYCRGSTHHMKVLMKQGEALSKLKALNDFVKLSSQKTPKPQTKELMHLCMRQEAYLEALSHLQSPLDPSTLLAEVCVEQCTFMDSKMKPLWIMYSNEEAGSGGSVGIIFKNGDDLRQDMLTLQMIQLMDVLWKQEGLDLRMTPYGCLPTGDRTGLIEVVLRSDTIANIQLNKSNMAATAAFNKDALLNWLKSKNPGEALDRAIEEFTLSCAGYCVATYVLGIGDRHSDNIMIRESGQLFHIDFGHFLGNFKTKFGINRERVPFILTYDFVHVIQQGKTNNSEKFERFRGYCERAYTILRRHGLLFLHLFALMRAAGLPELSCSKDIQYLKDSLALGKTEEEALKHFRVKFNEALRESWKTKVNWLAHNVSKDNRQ
# UniProt P48736: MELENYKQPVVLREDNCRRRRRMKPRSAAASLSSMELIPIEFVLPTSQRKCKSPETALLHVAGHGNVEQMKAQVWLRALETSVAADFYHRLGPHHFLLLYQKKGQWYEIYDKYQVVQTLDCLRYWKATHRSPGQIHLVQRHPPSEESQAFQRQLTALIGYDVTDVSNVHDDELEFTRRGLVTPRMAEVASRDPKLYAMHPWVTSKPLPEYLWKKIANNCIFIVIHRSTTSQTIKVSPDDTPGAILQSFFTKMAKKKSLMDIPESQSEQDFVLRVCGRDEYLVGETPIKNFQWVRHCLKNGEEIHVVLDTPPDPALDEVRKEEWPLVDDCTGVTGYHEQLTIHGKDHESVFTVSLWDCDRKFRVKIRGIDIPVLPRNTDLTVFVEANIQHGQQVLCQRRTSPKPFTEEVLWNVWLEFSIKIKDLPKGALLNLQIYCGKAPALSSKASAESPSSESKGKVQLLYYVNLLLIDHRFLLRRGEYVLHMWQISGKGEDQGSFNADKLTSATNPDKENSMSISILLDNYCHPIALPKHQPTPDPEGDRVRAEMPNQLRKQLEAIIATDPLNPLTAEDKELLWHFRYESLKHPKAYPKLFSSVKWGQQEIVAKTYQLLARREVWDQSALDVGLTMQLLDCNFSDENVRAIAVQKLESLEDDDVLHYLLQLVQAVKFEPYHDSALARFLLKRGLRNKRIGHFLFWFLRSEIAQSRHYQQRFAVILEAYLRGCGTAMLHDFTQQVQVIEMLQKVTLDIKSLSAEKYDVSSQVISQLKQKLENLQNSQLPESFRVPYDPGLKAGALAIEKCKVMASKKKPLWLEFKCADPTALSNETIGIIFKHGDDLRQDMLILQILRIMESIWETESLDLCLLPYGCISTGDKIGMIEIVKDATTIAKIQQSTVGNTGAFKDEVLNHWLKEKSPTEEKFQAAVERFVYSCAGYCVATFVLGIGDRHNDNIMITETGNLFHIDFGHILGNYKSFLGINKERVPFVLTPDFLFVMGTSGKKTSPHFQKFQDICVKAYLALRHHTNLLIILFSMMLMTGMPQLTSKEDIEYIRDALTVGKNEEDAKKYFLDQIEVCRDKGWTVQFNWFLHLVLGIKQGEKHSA
# UniProt P42336, whole entry: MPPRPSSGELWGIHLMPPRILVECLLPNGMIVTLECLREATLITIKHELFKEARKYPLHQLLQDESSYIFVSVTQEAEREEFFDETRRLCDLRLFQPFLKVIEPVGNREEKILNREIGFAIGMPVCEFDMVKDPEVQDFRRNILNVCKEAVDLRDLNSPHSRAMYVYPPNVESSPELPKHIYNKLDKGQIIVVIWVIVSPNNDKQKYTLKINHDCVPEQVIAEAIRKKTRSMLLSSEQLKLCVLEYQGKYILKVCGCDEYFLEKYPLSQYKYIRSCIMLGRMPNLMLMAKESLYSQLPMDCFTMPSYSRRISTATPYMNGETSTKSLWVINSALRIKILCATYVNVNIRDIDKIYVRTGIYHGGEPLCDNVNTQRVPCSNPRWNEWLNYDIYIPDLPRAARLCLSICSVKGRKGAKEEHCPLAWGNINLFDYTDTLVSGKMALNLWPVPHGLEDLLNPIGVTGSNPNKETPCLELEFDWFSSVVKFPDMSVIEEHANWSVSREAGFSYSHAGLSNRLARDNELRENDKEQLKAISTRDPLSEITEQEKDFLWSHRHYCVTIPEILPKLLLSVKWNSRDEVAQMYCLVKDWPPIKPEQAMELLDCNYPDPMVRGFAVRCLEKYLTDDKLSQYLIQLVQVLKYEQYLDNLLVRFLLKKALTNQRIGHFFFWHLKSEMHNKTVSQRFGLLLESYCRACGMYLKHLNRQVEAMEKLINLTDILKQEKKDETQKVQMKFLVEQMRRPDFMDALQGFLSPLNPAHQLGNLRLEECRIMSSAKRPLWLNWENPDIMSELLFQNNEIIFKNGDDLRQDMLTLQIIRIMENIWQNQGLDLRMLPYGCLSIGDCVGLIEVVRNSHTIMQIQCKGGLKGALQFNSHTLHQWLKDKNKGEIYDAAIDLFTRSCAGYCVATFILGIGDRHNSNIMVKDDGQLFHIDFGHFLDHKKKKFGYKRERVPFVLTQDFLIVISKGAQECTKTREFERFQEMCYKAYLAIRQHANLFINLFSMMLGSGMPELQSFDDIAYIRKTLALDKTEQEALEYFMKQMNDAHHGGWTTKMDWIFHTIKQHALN
# UniProt P42338: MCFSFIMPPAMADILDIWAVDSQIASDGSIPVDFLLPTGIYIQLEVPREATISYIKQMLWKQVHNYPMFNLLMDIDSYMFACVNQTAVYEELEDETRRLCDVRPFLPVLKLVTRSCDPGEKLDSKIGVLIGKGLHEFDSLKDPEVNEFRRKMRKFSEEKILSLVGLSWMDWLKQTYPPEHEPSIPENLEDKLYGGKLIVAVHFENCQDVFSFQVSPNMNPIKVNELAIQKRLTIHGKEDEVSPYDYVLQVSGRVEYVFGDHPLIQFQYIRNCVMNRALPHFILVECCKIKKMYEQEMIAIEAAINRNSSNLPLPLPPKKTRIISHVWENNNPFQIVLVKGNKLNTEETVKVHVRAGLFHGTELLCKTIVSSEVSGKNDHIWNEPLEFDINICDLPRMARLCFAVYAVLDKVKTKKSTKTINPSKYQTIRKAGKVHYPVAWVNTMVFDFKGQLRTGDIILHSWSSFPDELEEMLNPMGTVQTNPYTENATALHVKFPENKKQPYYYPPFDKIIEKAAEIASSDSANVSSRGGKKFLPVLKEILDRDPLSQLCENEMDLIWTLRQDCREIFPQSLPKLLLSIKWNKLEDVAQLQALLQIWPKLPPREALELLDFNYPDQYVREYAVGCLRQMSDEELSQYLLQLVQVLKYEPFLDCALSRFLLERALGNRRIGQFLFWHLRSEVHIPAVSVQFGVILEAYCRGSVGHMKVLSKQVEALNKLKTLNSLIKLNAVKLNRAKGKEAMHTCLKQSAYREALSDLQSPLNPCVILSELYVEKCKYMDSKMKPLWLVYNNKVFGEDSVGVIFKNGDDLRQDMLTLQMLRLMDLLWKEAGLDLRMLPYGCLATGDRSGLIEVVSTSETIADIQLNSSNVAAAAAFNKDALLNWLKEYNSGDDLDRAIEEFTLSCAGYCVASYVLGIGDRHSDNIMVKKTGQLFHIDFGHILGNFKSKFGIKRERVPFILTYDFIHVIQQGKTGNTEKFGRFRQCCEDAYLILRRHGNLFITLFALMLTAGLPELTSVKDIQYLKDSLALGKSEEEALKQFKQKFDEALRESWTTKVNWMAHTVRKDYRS
# Type in all cases: biochemical
# [1] = target: PI3K δ (Homo sapiens (Human), UniProt O00329); test: PI 3-Kinase (human) HTRF assay, p110δ/p85α
# [2] = target: PI3K γ (Homo sapiens (Human), UniProt P48736); test: PI 3-Kinase (human) HTRF assay, p110γ
# [3] = target: mTORC (Homo sapiens (Human), UniProt P42345); test: mTOR inhibition assay (radiometric or LanthaScreen TR-FRET)
# [4] = target: PI3K α (Homo sapiens (Human), UniProt P42336); test: PI 3-Kinase (human) HTRF assay, p110α/p85α
# [5] = target: PI3K β (Homo sapiens (Human), UniProt P42338); test: PI 3-Kinase (human) HTRF assay, p110β/p85α
smiles,measurement,setting,value
Nc1nc2cc(-c3ccc4ncnc(N5CCOCC5)c4c3)ccc2o1 [Compound 22],IC50,[1],< 100 nM
same,IC50,[2],< 100 nM
same,IC50,[3],< 1000 nM
same,IC50,[4],< 100 nM
same,IC50,[5],< 100 nM

# — patent US9682141B2, “Combination of kinase inhibitors and uses thereof” (INTELLIKINE LLC, priority 2011, dated 2017)
